Among the data in PubChem BioAssay AID624139 (Broad Institute, 2012) are outcome values, retold here.

By UniProt entry, the sequences of proteins in these tests, tags left out. Where a name states a change or a piece, a line headed by the entry shows the natural chain unless it says otherwise.
UniProt P19838: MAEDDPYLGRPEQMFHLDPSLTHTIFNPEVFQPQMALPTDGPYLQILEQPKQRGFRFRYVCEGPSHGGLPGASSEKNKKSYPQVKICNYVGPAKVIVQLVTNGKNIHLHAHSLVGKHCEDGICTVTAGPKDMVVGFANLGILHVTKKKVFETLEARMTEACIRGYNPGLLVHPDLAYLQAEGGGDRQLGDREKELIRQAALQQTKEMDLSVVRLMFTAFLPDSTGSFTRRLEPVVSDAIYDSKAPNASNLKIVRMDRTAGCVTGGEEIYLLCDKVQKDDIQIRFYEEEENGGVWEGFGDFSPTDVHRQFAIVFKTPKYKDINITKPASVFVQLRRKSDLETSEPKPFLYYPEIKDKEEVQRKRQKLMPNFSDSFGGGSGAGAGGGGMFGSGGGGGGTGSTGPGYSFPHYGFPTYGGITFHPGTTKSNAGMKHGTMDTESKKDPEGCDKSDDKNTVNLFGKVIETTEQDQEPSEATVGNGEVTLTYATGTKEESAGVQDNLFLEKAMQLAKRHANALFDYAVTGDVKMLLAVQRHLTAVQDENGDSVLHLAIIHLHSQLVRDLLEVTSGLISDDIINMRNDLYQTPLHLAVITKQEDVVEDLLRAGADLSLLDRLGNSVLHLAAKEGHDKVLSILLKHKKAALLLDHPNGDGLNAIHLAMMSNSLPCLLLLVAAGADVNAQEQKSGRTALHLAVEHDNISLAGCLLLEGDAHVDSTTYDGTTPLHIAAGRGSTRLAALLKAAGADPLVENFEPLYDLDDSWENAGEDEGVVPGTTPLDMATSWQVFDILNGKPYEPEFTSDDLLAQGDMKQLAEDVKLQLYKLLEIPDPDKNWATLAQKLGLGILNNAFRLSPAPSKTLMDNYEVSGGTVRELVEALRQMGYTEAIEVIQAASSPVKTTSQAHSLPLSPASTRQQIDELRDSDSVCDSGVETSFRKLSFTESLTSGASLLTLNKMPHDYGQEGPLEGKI

Molecules are shown by their SMILES. Only a part is listed here, and it is no random draw. Activity calls are given as the source filed them.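 How the source made its calls: active means spot fluorescence over background significantly raised, with a chance value under 7% in all four replicate spots of the compound; inactive means the rest.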

This assay concerns the target Nuclear factor NF-kappa-B p105 subunit (Homo sapiens) (UniProt P19838). In words: binders of NF-kB p50 subunit, primary screen, biochemical, small molecule microarray, anti-His fluorescence (AID 624139).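 Further: probe protein is his-tagged human p50 processed subunit at 1 µg/ml.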 As to conditions: anti-His fluorescence binding.
As to `COc1ccc(CN2/C(=N\P(=O)(Oc3ccccc3)Oc3ccccc3)Cc3ccccc3C2C2CC2)cc1` (centres undefined), the molecule was classed as inactive.

Regarding `COc1ccc(CN2/C(=N/P(=O)(Oc3ccccc3)Oc3ccccc3)CC(C)=CC2C)cc1` (centres undefined), the result was inactive.

As for `CN(C(=O)Cc1ccc(Cl)c(Cl)c1)C1CCCCC1N1CCCC1` (centres undefined), the molecule was called inactive.

In the case of `C=CC1C=C(C)C/C(=N\P(=O)(Oc2ccccc2)Oc2ccccc2)N1Cc1ccc(OC)cc1` (centres undefined), the outcome was inactive.
